According to patent US12472208B2 (priority 2013, dated 2025):

System: lung function
Assay: Accidental human exposure to chloromethyl-methyl-sulfide
Settings: exposure in 1992, followed by recovery of a portion

## CSCCl
  temporary loss of lung function: more than 50%
